{"source": "patent US6911443B2", "about": "(Bayer Aktiengesellschaft, priority 2000, dated 2005)", "biological_target": "human Syk (GST-Syk) (Homo sapiens, UniProt P43405)", "experiment": "Syk tyrosine kinase inhibitory assay", "type": "biochemical", "details": "read-out: Activity grade (IC50 class); in vitro; compounds as yielded by solid phase synthesis, purity about 40 to 90%", "data": [{"smiles": "COc1ccc(-c2cc3nccn3c(NCCN3CCOCC3)n2)cc1OC", "values": [{"measurement": "IC50", "value": "500 to 2000", "unit": "nM"}]}]}
